Reference: ChEMBL document CHEMBL5729369, “Modulators of the NMDA receptor” (2022)

By UniProt entry, the sequences of proteins in these tests, tags left out. Where a name states a change or a piece, a line headed by the entry shows the natural chain unless it says otherwise.
UniProt O60391: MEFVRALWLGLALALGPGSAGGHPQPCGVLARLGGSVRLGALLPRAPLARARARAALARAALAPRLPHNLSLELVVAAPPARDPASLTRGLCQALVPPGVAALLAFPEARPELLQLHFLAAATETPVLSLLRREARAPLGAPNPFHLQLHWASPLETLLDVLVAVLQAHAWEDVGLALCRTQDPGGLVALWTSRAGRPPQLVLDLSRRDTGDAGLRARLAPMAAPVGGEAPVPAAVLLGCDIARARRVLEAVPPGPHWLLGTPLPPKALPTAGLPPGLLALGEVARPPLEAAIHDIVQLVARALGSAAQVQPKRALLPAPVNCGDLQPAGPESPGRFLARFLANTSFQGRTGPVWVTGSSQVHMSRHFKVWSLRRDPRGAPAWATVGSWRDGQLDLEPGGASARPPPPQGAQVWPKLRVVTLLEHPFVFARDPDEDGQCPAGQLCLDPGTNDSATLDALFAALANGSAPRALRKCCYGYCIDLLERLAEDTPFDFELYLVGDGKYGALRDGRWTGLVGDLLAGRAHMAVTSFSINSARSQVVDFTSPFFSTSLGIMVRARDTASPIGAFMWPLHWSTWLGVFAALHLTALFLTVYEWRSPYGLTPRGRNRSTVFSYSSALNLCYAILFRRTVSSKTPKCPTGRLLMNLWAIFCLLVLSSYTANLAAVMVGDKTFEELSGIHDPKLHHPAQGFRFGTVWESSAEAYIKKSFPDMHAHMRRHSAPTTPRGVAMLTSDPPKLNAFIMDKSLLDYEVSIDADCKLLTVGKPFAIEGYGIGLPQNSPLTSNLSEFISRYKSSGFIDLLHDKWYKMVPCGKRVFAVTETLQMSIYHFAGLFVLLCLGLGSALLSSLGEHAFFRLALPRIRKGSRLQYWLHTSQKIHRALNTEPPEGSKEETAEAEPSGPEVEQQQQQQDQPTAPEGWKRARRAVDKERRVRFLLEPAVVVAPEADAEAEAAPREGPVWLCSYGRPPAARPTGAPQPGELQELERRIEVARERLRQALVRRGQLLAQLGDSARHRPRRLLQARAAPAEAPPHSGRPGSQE
UniProt Q14957: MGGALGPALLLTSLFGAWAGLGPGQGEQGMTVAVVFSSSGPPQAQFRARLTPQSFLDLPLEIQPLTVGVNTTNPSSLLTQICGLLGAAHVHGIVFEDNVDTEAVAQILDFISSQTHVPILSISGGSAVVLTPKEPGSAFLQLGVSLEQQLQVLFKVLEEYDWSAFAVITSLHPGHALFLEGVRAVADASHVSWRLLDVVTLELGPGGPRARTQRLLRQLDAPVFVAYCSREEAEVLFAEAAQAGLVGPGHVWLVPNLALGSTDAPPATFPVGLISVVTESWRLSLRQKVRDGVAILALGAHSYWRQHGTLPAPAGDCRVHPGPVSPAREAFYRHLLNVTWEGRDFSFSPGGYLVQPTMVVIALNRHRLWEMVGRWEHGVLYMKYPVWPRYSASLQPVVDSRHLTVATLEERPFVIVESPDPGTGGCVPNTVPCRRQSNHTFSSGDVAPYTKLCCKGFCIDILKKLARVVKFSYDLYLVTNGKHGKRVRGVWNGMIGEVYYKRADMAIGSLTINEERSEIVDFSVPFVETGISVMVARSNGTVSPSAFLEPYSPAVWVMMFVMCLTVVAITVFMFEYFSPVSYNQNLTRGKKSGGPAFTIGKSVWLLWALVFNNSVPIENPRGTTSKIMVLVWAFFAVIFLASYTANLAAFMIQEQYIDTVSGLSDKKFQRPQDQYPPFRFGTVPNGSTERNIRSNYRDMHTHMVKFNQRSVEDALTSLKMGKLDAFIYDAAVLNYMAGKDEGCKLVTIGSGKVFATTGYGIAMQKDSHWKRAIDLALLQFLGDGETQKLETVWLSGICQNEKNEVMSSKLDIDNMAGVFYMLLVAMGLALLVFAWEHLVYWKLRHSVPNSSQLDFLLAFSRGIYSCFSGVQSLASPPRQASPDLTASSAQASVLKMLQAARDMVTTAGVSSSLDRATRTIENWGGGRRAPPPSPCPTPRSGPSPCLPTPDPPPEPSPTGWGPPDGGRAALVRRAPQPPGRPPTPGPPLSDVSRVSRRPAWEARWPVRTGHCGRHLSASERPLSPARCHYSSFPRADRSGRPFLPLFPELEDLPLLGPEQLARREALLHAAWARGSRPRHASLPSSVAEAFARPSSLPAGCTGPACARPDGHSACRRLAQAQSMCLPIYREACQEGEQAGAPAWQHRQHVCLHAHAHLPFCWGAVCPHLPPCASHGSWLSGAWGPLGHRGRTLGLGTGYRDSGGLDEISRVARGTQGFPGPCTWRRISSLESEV

Target: Glutamate receptor ionotropic, NMDA 1/2C/3B (Homo sapiens, UniProt O60391+Q05586+Q14957)

`N[C@H](CNC(=O)c1cc2nccc(Br)c2s1)C(=O)O` was tested. Which Ki did it give?
Its Ki is 63 nM.
